This note sets out measurements from PubChem BioAssay AID1259310 (The Scripps Research Institute Molecular Screening Center, 2017).

The chains behind the UniProt entries cited, without tags or fusion partners. Where a name states a change or a piece, a line headed by the entry shows the natural chain unless it says otherwise.
UniProt Q969H0, whole entry, stated change not applied: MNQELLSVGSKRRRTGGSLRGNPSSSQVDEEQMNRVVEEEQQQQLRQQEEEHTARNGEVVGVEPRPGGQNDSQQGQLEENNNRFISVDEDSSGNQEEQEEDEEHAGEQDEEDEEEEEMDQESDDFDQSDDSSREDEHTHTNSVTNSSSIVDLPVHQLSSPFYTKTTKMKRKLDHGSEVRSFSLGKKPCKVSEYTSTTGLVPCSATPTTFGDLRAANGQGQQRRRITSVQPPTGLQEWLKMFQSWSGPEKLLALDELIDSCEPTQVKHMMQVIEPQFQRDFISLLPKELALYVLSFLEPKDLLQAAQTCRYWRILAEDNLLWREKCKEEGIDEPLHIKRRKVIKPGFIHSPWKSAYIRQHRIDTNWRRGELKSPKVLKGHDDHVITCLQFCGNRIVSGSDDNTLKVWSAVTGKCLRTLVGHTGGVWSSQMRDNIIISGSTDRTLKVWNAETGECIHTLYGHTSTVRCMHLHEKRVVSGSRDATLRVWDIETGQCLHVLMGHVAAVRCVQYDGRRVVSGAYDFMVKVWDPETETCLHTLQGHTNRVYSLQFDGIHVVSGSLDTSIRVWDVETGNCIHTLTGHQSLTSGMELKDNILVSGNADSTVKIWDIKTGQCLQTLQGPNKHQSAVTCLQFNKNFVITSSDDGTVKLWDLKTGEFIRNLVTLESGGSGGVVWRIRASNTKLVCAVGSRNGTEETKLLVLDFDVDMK

This is a selection; strong and weak results do not stand in their true shares. Some tests of the compounds listed are not included; inactive here does not mean inactive elsewhere. The source made the active and inactive calls. Cut-off read from the data, not from the text of the source: active = normalized activity above about 1.9%; inactive = the rest.

In the assay the target is F-box/WD repeat-containing protein 7 (Homo sapiens) (UniProt Q969H0). As to the kind of experiment: FBW7 E3 ligase activators, primary screen, biochemical, AlphaScreen, human (AID 1259310).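 Note: purified mutant Fbw7 with reduced substrate affinity.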 The following applies: AlphaScreen FBW7–phospho-cyclin E peptide binding, activator screen; at 26.1 µM; stronger effect = higher value. Background: In Alpha technology, singlet oxygen from a donor bead excites a nearby acceptor bead.
With `O=C(c1ccco1)N(Cc1ccco1)C1CCN(CCc2cccs2)CC1`, the normalized activity (activation) was inactive: -0.19%.
Regarding `CC(=O)N(Cc1cccnc1)C1CCN(CCc2cccs2)CC1`, the normalized activity (activation) is inactive: 0.15%.
